Earlier results on 34 substances are cited in patent US7422793B2, “Non-toxic corrosion-protection rinses and seals based on rare earth elements” (University of Dayton, priority 2002, dated 2008).

The conditions of the series: pH 7; cited from earlier work.
With Lithium sulfate, the “Solubility in Water” value is reported as 2.7 × 10^0 mole/L.
On to Ammonium fluoroaluminate, for which the “Solubility in Water” value was 0.053 mol/L.
Regarding Rubidium perchlorate, the “Solubility in Water” value was 0.22 mol/L.
As for Ammonium hexafluorohafnate, the “Solubility in Water” value is 1 × 10^0 mole/L.
Regarding Lithium chlorite, the “Solubility in Water” value is on record as 5 × 10^0 mole/L.
For the substance Lithium hexafluoroaluminate, the “Solubility in Water” value was 0.0066 mol/L.
As to Sodium chlorite, the “Solubility in Water” value is on record as 4.3 × 10^0 mole/L.
Turning to Lithium perborate, the “Solubility in Water” value is 0.1 mol/L.
Turning to Rubidium chlorate, the “Solubility in Water” value was 0.3 mol/L.
Rubidium fluoroantimonate: the “Solubility in Water” value was 1.6 × 10^0 mole/L.
On to Strontium chlorite, for which the “Solubility in Water” value is 0.5 mol/L.
Ammonium stannate: the “Solubility in Water” value is 5 × 10^0 mole/L.
Consider Barium chlorite, for which the “Solubility in Water” value is 0.1 mol/L.
As for Germanium dioxide hydrate, the “Solubility in Water” value was 0.043 mol/L.
In the case of Ammonium tantalate, the “Solubility in Water” value was 0.01 mol/L.
As for Ammonium fluorozirconate, the “Solubility in Water” value was 0.1 mol/L.
With Rubidium molybdate, the “Solubility in Water” value was 6.4 × 10^0 mole/L.
With Ammonium molybdate, the “Solubility in Water” value was 5 × 10^0 mole/L.
Take Ammonium hexafluorotitanate: the “Solubility in Water” value is 0.1 mol/L.
Regarding Calcium chlorite, the “Solubility in Water” value is given as 1 × 10^0 mole/L.
For Rubidium vanadate, the “Solubility in Water” value was 0.5 mol/L.
Regarding Cerium (III) dimethylphosphate, the “Solubility in Water” value is 0.76 mol/L.
For Ammonium perborate, the “Solubility in Water” value was 0.18 mol/L.
On to Iron (II) hexafluorosilicate, for which the “Solubility in Water” value was 4.19 × 10^0 mole/L.
On to Calcium hexaniobate, for which the “Solubility in Water” value is 0.047 mol/L.
For Sodium vanadate, the “Solubility in Water” value was 1.7 × 10^0 mole/L.
For Ammonium fluorostannate, the “Solubility in Water” value is 0.1 mol/L.
Consider Calcium nitrite, for which the “Solubility in Water” value is on record as 3.9 × 10^0 mole/L.
For the substance Cesium hexafluoroantimonate, the “Solubility in Water” value is 5 × 10^0 mole/L.
Regarding Rubidium hexafluorosilicate, the “Solubility in Water” value is 0.0069 mol/L.
With Zinc fluorogallate, the “Solubility in Water” value was 0.1 mol/L.
Turning to Lithium vanadate, the “Solubility in Water” value is reported as 1 × 10^0 mole/L.
Turning to Germanium fluoride hydrate, the “Solubility in Water” value was 0.1 mol/L.
As to Ammonium niobate, the “Solubility in Water” value is 0.1 mol/L.
